According to paper PMC6284057, “Combined Antibacterial Effects of Goat Cathelicidins With Different Mechanisms of Action” (Frontiers in Microbiology, 2018):

Tested on: E. cloacae (XDR CI 4172)
Type: cell-based, Enterobacter cloacae
Settings: Mueller-Hinton broth, 10^6 CFU/ml, 0.1% BSA, 37°C, 24 h, median of at least 3 experiments
Experimental: Antimicrobial assay was performed as described previously ([Panteleev et al., 2017b]). Briefly, mid-log phase bacterial test cultures were diluted with the 2× Mueller-Hinton broth (MH, Sigma) supplemented with 1.8% NaCl or without it so that to reach a final cell concentration of 10^6 CFU/ml. 50 μl aliquots of the obtained bacterial suspension were added to 50 μl of the peptide solutions serially diluted with 0.1% water solution of bovine serum albumin (BSA) in 96-well flat-bottom polystyrene microplates (Eppendorf #0030730011). After incubation at 37°C and 900 rpm for 24 h the minimum inhibitory concentrations (MIC) were determined as the lowest peptide concentrations that prevented growth of a test microorganism observed as visible turbidity. The results were expressed as the median values determined on the basis of at least three independent experiments performed in triplicate.

Compound `CC[C@H](C)[C@H](NC(=O)CN)C(=O)NCC(=O)N[C@@H](C)C(=O)N[C@H](C(=O)N[C@@H](CC(C)C)C(=O)N[C@@H](CCCCN)C(=O)N[C@H](C(=O)N[C@@H](CC(C)C)C(=O)N[C@H](C(=O)N[C@H](C(=O)NCC(=O)N[C@@H](CC(C)C)C(=O)N1CCC[C@H]1C(=O)N[C@@H](C)C(=O)N[C@@H](CC(C)C)C(=O)N[C@H](C(=O)N[C@@H](CO)C(=O)N[C@@H](Cc1c[nH]c2ccccc12)C(=O)N[C@H](C(=O)N[C@@H](CCCCN)C(=O)N[C@@H](CCCNC(=N)N)C(=O)N[C@@H](CCCCN)C(=O)N[C@@H](CCCNC(=N)N)C(=O)N[C@@H](CCC(N)=O)C(=O)N[C@@H](CCC(N)=O)C(N)=O)[C@@H](C)CC)[C@@H](C)CC)[C@@H](C)O)[C@@H](C)O)C(C)C)C(C)C` [Melittin, reference compound] has a Minimum inhibitory concentration (0.9% NaCl) of 8 µM (≈ 22.8 µg/mL) and a Minimum inhibitory concentration (Without NaCl) of 2 µM (≈ 5.69 µg/mL).

Converted amounts (≈) assume the structure as drawn. Where two headings read alike, the source gives them in different places.
